Assay results as given in PubChem BioAssay AID1950 (The Scripps Research Institute Molecular Screening Center, 2009).
The list shows a part of the results, in another mix than the full data. Some of these compounds have results that are not shown, active ones among them. Calls of active or inactive are those of the source. Cut-off read from the data, not from the text of the source: active = inhibition above about 28%; inactive = the rest.

Each molecule was assayed on EBNA-1 (Epstein-Barr virus nuclear antigen 1), Human herpesvirus 4 (assay: blockers of EBV EBNA-1 binding to DNA – biochemical, fluorescence polarization, primary screen (AID 1950)). Details: EBNA-1 DNA binding, at 14.8 µM, active compounds read high.
`CC(C)Oc1ccc(C(=O)NCC2(N(C)C)CCCCC2)cc1` was tested, and the inhibition was inactive: -10.8%. `CN(C)c1cccc(C(=O)NCC2(N(C)C)CCCCC2)c1` was tested, and the inhibition was inactive: 6.2%. With `COc1ccc(Br)c(C(=O)NCC2(N3CCCCC3)CCCCC2)c1` the inhibition was inactive: 6.7%. For `O=C(OC1CN2CCC1CC2)C(CO)(c1ccccc1)c1ccccc1` (centres undefined), the inhibition was inactive: 0.3%. For `O=C(NCC1(N2CCCCC2)CCCCC1)c1cccc(Cl)c1`, the inhibition was inactive: -6.53%. `COc1cccc(C(=O)NCC2(N3CCCCC3)CCCCC2)c1` was tested, and the inhibition was inactive: -3.97%. For `COc1ccc(Cl)cc1C(=O)NCC1(N(C)C)CCCCC1`, the inhibition was inactive: 1.21%. With `COc1cc(C(=O)NCC2(N(C)C)CCCCC2)c([N+](=O)[O-])cc1OC` the inhibition was inactive: -8.48%. With `CN(C)C1(CNC(=O)c2ccc(Br)cc2)CCCCC1` the inhibition was inactive: -3.75%. For `COc1ccc(C(=O)NCC2(N(C)C)CCCCC2)cc1`, the inhibition was inactive: -5.78%. For `Cc1cc(C(=O)NCC2(N3CCCCC3)CCCCC2)ccc1[N+](=O)[O-]`, the inhibition was inactive: 5.65%. For `CCN1CCCC(OC(=O)C2(O)c3ccccc3C=Cc3ccccc32)C1` (centres undefined), the inhibition was inactive: 9.23%. For `O=C(NCC1(N2CCCCC2)CCCCC1)c1cccc(Br)c1`, the inhibition was inactive: 4.19%. `C=CCN1CCN(CCOC(=O)C(O)(c2ccccc2)c2ccccc2)CC1` was tested, and the inhibition was inactive: -13.2%. For `O=C(NCC1(N2CCCCC2)CCCCC1)c1cc(F)c(F)cc1Cl`, the inhibition was inactive: -5.6%. In the case of `Cc1ccccc1C(=O)NCC1(N2CCCCC2)CCCCC1`, the inhibition is reported as inactive: -4.35%. With `CN(C)C1CCCC1OC(=O)C(O)(c1ccccc1)c1ccccc1` (centres undefined) the inhibition was inactive: -1.65%. With `CN(C)c1ccc(C(=O)NCC2(N(C)C)CCCCC2)cc1` the inhibition was inactive: -3.74%. For `Cc1ccc(C(=O)NCC2(N3CCCCC3)CCCCC2)cc1`, the inhibition was inactive: -8.77%. `CCN(CC)CC(C)C(C)OC(=O)C(O)(c1ccccc1)c1ccccc1` (centres undefined) was tested, and the inhibition was inactive: -1%. With `COc1cc(SC)ccc1C(=O)NCC1(N(C)C)CCCCC1` the inhibition was inactive: 7.89%. `CC(C)N1C(=O)CC2(CCN(CCOC(=O)C(O)(c3ccccc3)c3ccccc3)CC2)C1=O` was tested, and the inhibition was inactive: 2.12%. `CN1[C@@H]2CC[C@H]1CC(OC(=O)C(O)(c1ccccc1)c1ccccc1)C2` (some centres undefined) was tested, and the inhibition was inactive: 16.1%. In the case of `O=C(NCC1(N2CCCCC2)CCCCC1)c1cc([N+](=O)[O-])ccc1Cl`, the inhibition is reported as inactive: -7.4%.
